Test results as given in patent US10815192B2.

Key:
[1] = system: antibodies from Immunogen 2 (further sheep); assay: Competitive immunoassay, antibodies of further sheep, Immunogen 2 and Hapten 1 as tracer
Description: (§1) In order to generate polyclonal antisera, 2 mgs of the immunogen-2 is prepared in PBS, mixed at a ratio of 50% immunogen in PBS to 50% Freund's Complete adjuvant (Sigma, Product Number F5881) and emulsified by repeatedly passing the mixture through a tip on the end of a 1 ml syringe, until it reaches the required semi-solid consistency. 1 ml of the emulsified mixture is injected intramuscularly into each host animal (sheep) as the primary immunization dose. Further injections (boosts) are prepared (1 mg of immunogen is prepared in PBS and mixed at a ratio of 50% Immunogen in PBS/50% Freunds Incomplete adjuvant, Sigma, Product Number—F5506). Boost injections are delivered intramuscularly at monthly intervals, 1 ml per animal. Serum is sampled monthly by collection of whole blood from the jugular vein for evaluation of the antibody titre. The degree of antibody purification required depends on the intended application. For many purposes, there is no requirement for purification of the serum, however, in other cases, such as where the antibody is to be immobilized on a solid support, purification steps (such as caprylic acid/ammonium sulphate precipitation) can be taken to remove undesired material and eliminate non-specific binding. Immunoassay development follows a standard process. A detecting agent (hapten conjugated to HRP) is added to a sample containing the target analyte and the raised antibodies, promoting competition between the detecting agent and analyte for binding to the antibodies. […] The signal can be detected or quantified by comparison with a calibrator which comprises known levels of target analyte. The cross-reactivity (CR) can be calculated using the equation below in which calculations are based upon binding and displacement at the 50% of maximum OD (optical density) binding point. […]

[2] = system: U-47700 targeted antibodies of the invention; assay: NPS II biochip assay on the Evidence Investigator platform
Excerpt: Similar cross-reactivity results were obtained using an NPS II biochip assay on the Evidence Investigator platform, which is a semi-automated benchtop platform that facilitates simultaneous detection of multiple drug metabolites from a single sample (Randox Laboratories Ltd, Crumlin, Northern Ireland, UK).

[3] = system: antibodies from Immunogen 2 (further sheep); assay: Competitive immunoassay, antibodies of further sheep, Immunogen 2 and Hapten 2 as tracer
Description: as §1

[4] = system: polyclonal antibodies from immunogen-2; assay: Competitive immunoassay, polystyrene solid support, polyclonal antibodies from immunogen-2 (RS3706), Hapten 2 as tracer; conditions: for IC50 (standard concentration which produces 50% inhibition of maximal signal): polystyrene, 37° C., incubation 2 hours; for % CR (cross-reactivity): relative to U-47700 = 100%
Description: In order to generate polyclonal antisera, 2 mgs of the immunogen-2 is prepared in PBS, mixed at a ratio of 50% immunogen in PBS to 50% Freund's Complete adjuvant (Sigma, Product Number F5881) and emulsified by repeatedly passing the mixture through a tip on the end of a 1 ml syringe, until it reaches the required semi-solid consistency. 1 ml of the emulsified mixture is injected intramuscularly into each host animal (sheep) as the primary immunization dose. Further injections (boosts) are prepared (1 mg of immunogen is prepared in PBS and mixed at a ratio of 50% Immunogen in PBS/50% Freunds Incomplete adjuvant, Sigma, Product Number—F5506). Boost injections are delivered intramuscularly at monthly intervals, 1 ml per animal. Serum is sampled monthly by collection of whole blood from the jugular vein for evaluation of the antibody titre. The degree of antibody purification required depends on the intended application. For many purposes, there is no requirement for purification of the serum, however, in other cases, such as where the antibody is to be immobilized on a solid support, purification steps (such as caprylic acid/ammonium sulphate precipitation) can be taken to remove undesired material and eliminate non-specific binding.
Immunoassay development follows a standard process. A detecting agent (hapten conjugated to HRP) is added to a sample containing the target analyte and the raised antibodies, promoting competition between the detecting agent and analyte for binding to the antibodies. The antibodies are contacted with a solid support; for example, following dilution of the antibodies in coating buffer the antibody-containing buffer is added to the solid support and incubated, typically at approximately 37° C. for about 2 hours, to allow antibody binding to surface. The antibodies can be polyclonal or monoclonal using standard techniques. The signal emitted in the immunoassay is proportionate to the amount of detecting agent bound to the antibodies which in turn is inversely proportionate to the analyte concentration. The signal can be detected or quantified by comparison with a calibrator which comprises known levels of target analyte. The cross-reactivity (CR) can be calculated using the equation below in which calculations are based upon binding and displacement at the 50% of maximum OD (optical density) binding point. The maximum OD is the signal generated using tracer alone and 50% displacement (inhibition) corresponds to the IC50. % CR=(OD without cross-reactant−OD with cross-reactant)×100 Using the above immunoassay development method (solid support=polystyrene, polyclonal antibodies from immunogen-2, temp=37° C., incubation 2 hours, using Hapten 2 as tracer) and quantification method the following % CR results were arrived at […]

SMILES | % CR [1] | % CR [2] | % CR [3] | IC50 (standard concentration which produces 50% inhibition of maximal signal) [4] | % CR (cross-reactivity) [4] | IC50 [1] | IC50 [3]
CNC1CCCCC1N(C)C(=O)c1ccc(Cl)c(Cl)c1 (stereo not drawn) | 23.40% | 24.3% | 17.30% | 3.61 ng/mL | 20% | – | –
CN(C)C1CCCCC1N(C)C(=O)c1ccc(Cl)c(Cl)c1 (stereo not drawn) | 100% | 100.0% | 100% | 0.722 ng/mL | 100.00% | 0.741 ng/mL (≈ 2.25 nM) | 2.140 ng/mL (≈ 6.5 nM)

Values after ≈ are worked out from the molar mass of the structure shown. Some compounds may have been tested in ways that are not shown here.
